## Measured affinities in a library of Ab-14 light chain variants

Reference: Li et al. 2023, doi:10.1038/s41467-023-39022-2. File: FLAb, binding data.

Target peptide (SARS-CoV-2 spike, HR2 region): PDVDLGDISGINAS

Ab-14 is the parent antibody, in scFv form: VH, then a 15-residue (Gly4Ser)3 linker, then VL. The heavy chain is unchanged in all variants.
VH: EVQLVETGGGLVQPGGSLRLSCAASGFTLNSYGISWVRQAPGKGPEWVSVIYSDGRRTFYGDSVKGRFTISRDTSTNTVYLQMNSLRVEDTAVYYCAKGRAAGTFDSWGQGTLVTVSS
VL: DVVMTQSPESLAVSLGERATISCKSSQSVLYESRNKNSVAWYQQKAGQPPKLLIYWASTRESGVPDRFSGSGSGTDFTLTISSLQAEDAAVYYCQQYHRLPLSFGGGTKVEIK

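The starting antibody came from a phage panning campaign against this peptide. This is the validation round: designs drawn from the data on random variants, tested in the same kind of assay. Several design methods are mixed in this list. In AlphaSeq, yeast of one mating type display the scFv and yeast of the other type display the target. Pairs that bind mate more often; barcode pairs of the diploids are counted by sequencing. Each replicate has its own calibration line, from reference interactions of the BCL2 family. There are six technical replicates.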

Each variant's VL is given in full. This list holds designs with more than six substitutions. Kd is apparent (estimated from mating counts) and averaged on the log scale over replicates with a signal. Smaller is tighter.

- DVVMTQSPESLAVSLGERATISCSVSNLGMVPSVWENSIAWYQQKAGQPPKLLIYDVTIVEEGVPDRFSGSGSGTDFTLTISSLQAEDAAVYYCQQYSRLPLLFGGGTKVEIK = 43 nM (6 of 6 replicates)
- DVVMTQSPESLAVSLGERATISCKISQAYLGEDRNKNSVAWYQQKAGQPPKLLIYNANQRESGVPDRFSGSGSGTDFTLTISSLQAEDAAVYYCQQYHRLPLSFGGGTKVEIK = 700 pM (6 of 6 replicates)
- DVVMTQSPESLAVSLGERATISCKFPQEVWYQSRMKNSVAWYQQKAGQPPKLLIYDASTREQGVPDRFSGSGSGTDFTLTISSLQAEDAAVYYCQQYHRLPLSFGGGTKVEIK = 420 pM (6 of 6 replicates)
- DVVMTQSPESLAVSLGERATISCTIGSTLMYGSRNRSNVAWYQQKAGQPPKLLIYEVSERLNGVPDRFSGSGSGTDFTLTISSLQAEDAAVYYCQQYDRLPLIFGGGTKVEIK = 150 nM (3 of 6 replicates)
- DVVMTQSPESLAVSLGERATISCKTPPSVMYESRNKRSVAWYQQKAGQPPKLLIYSAYTRESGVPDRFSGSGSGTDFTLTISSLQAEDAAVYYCQQYHRLPLSFGGGTKVEIK = 31 nM (3 of 6 replicates)
- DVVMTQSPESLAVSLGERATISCKLDYLNGYSDIGGDSIAWYQQKAGQPPKLLIYEVSTAGMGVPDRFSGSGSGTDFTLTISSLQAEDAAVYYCQQYIRLPLSFGGGTKVEIK = 40 nM (3 of 6 replicates)
- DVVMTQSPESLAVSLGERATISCTLTMVQGMESHNMDNVAWYQQKAGQPPKLLIYDLSTRGSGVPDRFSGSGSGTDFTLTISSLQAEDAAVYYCQQYHRLPLSFGGGTKVEIK = 410 nM (5 of 6 replicates)
- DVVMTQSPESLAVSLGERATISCHLGWATMLEETVRNSVAWYQQKAGQPPKLLIYNNSTREDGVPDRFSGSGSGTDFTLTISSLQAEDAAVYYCQQYDRLPLSFGGGTKVEIK = 18 nM (6 of 6 replicates)
- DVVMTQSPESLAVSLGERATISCKLSFSKGGESRNKNSVAWYQQKAGQPPKLLIYDAGTRESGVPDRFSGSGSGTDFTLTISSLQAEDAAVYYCQQYHRLPLSFGGGTKVEIK = 1.5 nM (6 of 6 replicates)
- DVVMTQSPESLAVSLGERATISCKISALTMYESVNKNNIAWYQQKAGQPPKLLIYEMTTRPEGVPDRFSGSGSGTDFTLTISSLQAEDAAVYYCQSYHRLPLSFGGGTKVEIK = 2.1 nM (6 of 6 replicates)
- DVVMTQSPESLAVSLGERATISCKVSGQGLYGDRNANSVAWYQQKAGQPPKLLIYNASTREDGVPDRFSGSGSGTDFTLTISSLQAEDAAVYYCQQYHRLPLSFGGGTKVEIK = 450 pM (6 of 6 replicates)
- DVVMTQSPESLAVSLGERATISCKLRQVTGYESYNINSVAWYQQKAGQPPKLLIYQTSTRASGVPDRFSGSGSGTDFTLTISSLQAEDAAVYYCQDYHRLPLSFGGGTKVEIK = 6.6 nM (6 of 6 replicates)
- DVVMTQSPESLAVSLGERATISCQLGKNQVGETLMQHAIAWYQQKAGQPPKLLIYHDALRVDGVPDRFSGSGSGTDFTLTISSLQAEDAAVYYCQQYFRLPLLFGGGTKVEIK = 5.5 nM (6 of 6 replicates)
- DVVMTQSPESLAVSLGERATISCILMQPYKEPGAAKNNIAWYQQKAGQPPKLLIYDGSIRLDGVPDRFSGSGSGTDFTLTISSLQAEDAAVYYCQQYHRLPLVFGGGTKVEIK = 5.4 nM (6 of 6 replicates)
- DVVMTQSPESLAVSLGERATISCLLSQQNLYEDRNKNSVAWYQQKAGQPPKLLIYNASQRLSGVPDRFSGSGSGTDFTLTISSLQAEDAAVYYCQQYHRLPLSFGGGTKVEIK = 1.1 nM (6 of 6 replicates)
- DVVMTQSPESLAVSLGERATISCKLSWSVLGMERAKNSVAWYQQKAGQPPKLLIYNASTRESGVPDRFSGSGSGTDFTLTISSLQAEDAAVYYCQQYHRLPLSFGGGTKVEIK = 1.7 nM (6 of 6 replicates)
- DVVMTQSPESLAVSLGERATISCKLTMVTGHMSMSRNNVAWYQQKAGQPPKLLIYEMVTRENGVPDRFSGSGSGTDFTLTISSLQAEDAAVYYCQQYDRLPLSFGGGTKVEIK = 7.2 nM (1 of 6 replicates)
- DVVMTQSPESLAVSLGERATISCHMSMITLQGMRHRNSVAWYQQKAGQPPKLLIYQMTTRVNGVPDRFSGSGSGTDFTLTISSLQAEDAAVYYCQQYDRLPLSFGGGTKVEIK = 40 nM (6 of 6 replicates)

Extract of 2 entries:

| VL | Kd | replicates with signal |
|---|---|---|
| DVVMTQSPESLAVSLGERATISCKVSGQGLYGDRNANSVAWYQQKAGQPPKLLIYNASTREDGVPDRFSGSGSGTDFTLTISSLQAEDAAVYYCQQYHRLPLSFGGGTKVEIK | 450 pM | 6/6 |
| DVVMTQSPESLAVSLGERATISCILMQPYKEPGAAKNNIAWYQQKAGQPPKLLIYDGSIRLDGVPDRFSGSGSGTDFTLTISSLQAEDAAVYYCQQYHRLPLVFGGGTKVEIK | 5.4 nM | 6/6 |

The authors' rule: three or more of the six replicates give a measured affinity, fewer mean a poor binder. Empty control strains, which show no peptide, gave a signal in 4% of pairings with all light chain designs; the median was 430 nM and 95% of these signals were weaker than 38 nM. No background was subtracted. Of ten entries with the parent sequence, four were seen in most replicates (averages 2.2 nM to 240 nM), three in one and three in none, so single entries are noisy. A sequence measured in both rounds can read differently, since the two assays cover different ranges.